The subject of experiment [1] is Sphingomyelinase (Bacillus cereus). Description: Effect on neutral sphingomyelinase (N-SMase) from Bacillus cereus at IC50 concentration; No effect.
For experiment [2] the test system is unchanged. The description is as above. This is another data set of the same source.

On to `CCCCCCCCCCCCCCCC(=O)N[C@@H](CC(F)(F)P(=O)(O)O)[C@H](O)c1ccccc1`, for which, in experiment [1], the Ki entry is on record as “Not Active”. For the same compound, the IC50 entry in experiment [2] is reported as “Not Active”.

The values above are taken from ChEMBL document CHEMBL1136263, “Synthesis of non-competitive inhibitors of sphingomyelinases with significant activity” (Bioorg Med Chem Lett, 2003).
